# According to article PMC5007486, “Thermodynamic instability of viral proteins is a pathogen-associated molecular pattern targeted by human defensins” (Scientific Reports, 2016):
# Legend:
# PFV IN = assay type: binding, prototype foamy virus (PFV); details: DSF, SYPRO Orange, 20 mM HEPES pH 7.5, 150 mM NaCl; protein 7 μM; 3-fold molar excess of defensin; protein alone 47.6 ± 0.1; error = SEM
# Source text: (§1) Differential scanning fluorimetry (DSF)
# TEV Protease = assay type: binding, tobacco etch virus (TEV); details: DSF, SYPRO Orange, 20 mM HEPES pH 7.5, 150 mM NaCl; protein 5 μM; 3-fold molar excess of defensin; protein alone 43.7 ± 0.2; error = SEM
# Source text: as §1
substance,measurement,setting,value
"HNP-1: human neutrophil α-defensin peptide HNP-1, prepared by solid-phase peptide synthesis",Melting temperature (Tm) of PFV IN,PFV IN,43.3 ± 0.1 °C
same,Melting temperature (Tm) of TEV Protease,TEV Protease,34.9 ± 0.2 °C
